## Ab-95 light chain CDR variants: yeast mating affinities

Source: Engelhart et al. 2022 (doi:10.1038/s41597-022-01779-4), MIT Lincoln Laboratory and A-Alpha Bio; data file from the FLAb repository.

All variants were tested on one target, the spike HR2 peptide PDVDLGDISGINAS (SARS-CoV-2).

Ab-95 is the parent antibody, in scFv form: VH, then the linker GGGGSGGGGSGGGGS, then VL. The heavy chain is unchanged in all variants.
VH: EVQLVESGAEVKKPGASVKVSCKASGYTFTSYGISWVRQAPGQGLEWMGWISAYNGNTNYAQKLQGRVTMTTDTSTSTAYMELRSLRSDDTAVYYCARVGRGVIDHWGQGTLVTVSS
VL: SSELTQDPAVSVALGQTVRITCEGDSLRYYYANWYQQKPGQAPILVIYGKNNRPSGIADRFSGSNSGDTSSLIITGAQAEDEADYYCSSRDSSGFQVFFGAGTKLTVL

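Variants in AAYL52 differ from the parent at up to three CDR positions; double and triple changes were sampled at random. The scFvs were displayed on barcoded MATa yeast, the peptide on MATalpha yeast. After mating in shaken culture at 30 °C for 16 h, diploids were selected and their barcode pairs sequenced. Scores were corrected for input abundance and mapped to Kd with protein pairs of known affinity run in the same pool. Each pool was mated in three replicate cultures.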

Variants are written as CDR1, CDR2 and CDR3 of the light chain (limits as in the source). Parent: EGDSLRYYYAN, GKNNRPS, SSRDSSGFQVF.
All variants listed here change N33 of the VL, counted from its first residue.
The Kd shown is the geometric mean over detected replicates; a lower Kd is a better binder.
"no signal" means that the variant was in the library but no mating with the target was seen in any replicate; the authors take this as a sign of poor binding, and no number exists.
Entries are sorted by rising average, undetected variants last.
Three control strains display no target. For library AAYL52, 28% of the pairings with them gave a signal, with a median of 8.2 µM and one signal in twenty below 800 nM, so weak values seen in few replicates may be background.

The variant EYDWLRYYYAF / GKNNRPS / SSRDSSGFQVF showed 320 nM (3 of 3 replicates). With EGDSLRYYYAP / GKNNRAS / SSRDSSGFQVV the result was 480 nM (3 of 3 replicates). For EGDSLRYYYVK / GKNNPPS / SSRDSSGFQVF, the assay gave 550 nM (2 of 3 replicates). For EGDSLRYYYAV / GKNNRPS / SSRDSTGFQVF, the assay gave 830 nM (3 of 3 replicates). The variant EGDSARYYYAR / GKNNRPR / SSRDSSGFQVF gave 1.1 µM (3 of 3 replicates).

The variant QGDSLRYYYAK / GKNNRPS / SSRDSSGFGVF gave 1.3 µM (1 of 3 replicates). With EGDSLRYCYAQ / GKNNDPS / SSRDSSGFQVF the result was 1.4 µM (2 of 3 replicates). For EGDSLRYYYAV / GKNNRPS / SMRDSSGFQVF, the assay gave 2.0 µM (1 of 3 replicates). The variant EGDSLRYYYAQ / GKNNRPS / SSRDSSGFAMF gave 2.7 µM (2 of 3 replicates). For EGDGLRYYYAL / GKNNRCS / SSRDSSGFQVF, the assay gave 2.9 µM (1 of 3 replicates).

For EGDSLRYYYAT / GKNNRPS / SSHDFSGFQVF, the assay gave 3.4 µM (1 of 3 replicates). For YGDSLRYYYAD / GKQNRPS / SSRDSSGFQVF, the assay gave 3.6 µM (2 of 3 replicates). With LGDSLRYYYAH / GKNNRPS / SRRDSSGFQVF the result was 3.6 µM (2 of 3 replicates). With EHDSLRYYYAK / GKNNRPS / SKRDSSGFQVF the result was 3.8 µM (1 of 3 replicates). For EYDSLRYYYAC / LKNNRPS / SSRDSSGFQVF, the assay gave 5.7 µM (2 of 3 replicates).

The variant EGDSLRYYYAP / GKNSRPS / SSRDSSGFQNF gave 5.9 µM (3 of 3 replicates). For EGDSLRYYYAQ / GKRNRPS / SSFDSSGFQVF, the assay gave 6.4 µM (2 of 3 replicates). With EGDSLSYYYAS / GKNNRPR / SSRDSSGFQVF the result was 7.4 µM (3 of 3 replicates). The variant EGDSLYYYYAS / GKNNRPS / SVRDSSGFQVF gave 7.8 µM (1 of 3 replicates). The variant EGDELRYYYAV / GKNNRPS / SSYDSSGFQVF gave 8.4 µM (3 of 3 replicates).

The variant EGDSLRYYYAP / MKNNRPS / SSYDSSGFQVF showed 9.1 µM (2 of 3 replicates). For EGDSLRYYYAL / GKNNRPS / SSRDSSGWQVF, the assay gave 9.1 µM (3 of 3 replicates). The variant EGDSLRYYYAK / GKNMRPS / SSRDSSNFQVF gave 9.6 µM (3 of 3 replicates). For EGDGLRYYYAV / GKNNRPS / SSRDDSGFQVF, the assay gave 11 µM (2 of 3 replicates). The variant EGKSLRYYIAH / GKNNRPS / SSRDSSGFQVF showed 13 µM (1 of 3 replicates).

For EGDSLRYYYAF / DKNNRPS / SSRESSGFQVF, the assay gave 14 µM (1 of 3 replicates). With EGDSLRYYYAC / YANNRPS / SSRDSSGFQVF the result was 16 µM (2 of 3 replicates). For EGDSLRYYYAV / GDNNRPS / SSCDSSGFQVF, the assay gave 21 µM (1 of 3 replicates). The variant EGDSLRYYYAP / GKNNRQS / SSRDSSGFQVY showed 26 µM (3 of 3 replicates). With EGDSLRKYYAY / GKNARPS / SSRDSSGFQVF the result was 29 µM (1 of 3 replicates).

The variant EGDSLRYYYPT / LKNNRPS / SSRDSSGFQVF gave 31 µM (2 of 3 replicates). With EGDSLRYYYAI / GKNNRPS / SKRDLSGFQVF the result was 31 µM (2 of 3 replicates). For EGDMLRYYYAS / GKNNRPS / SSRDSSGFQVW, the assay gave 70 µM (3 of 3 replicates). The variant EGDSLRYYYAY / GKNNRPI / SSRDSSGFQVF gave 73 µM (2 of 3 replicates). For EGDSLRYYYAF / GKNNRPS / SSMDSSGFQVF, the assay gave 78 µM (2 of 3 replicates).

The variant EGDSLRYHYAL / GKNNRPS / SSRDSSGFQVF showed 91 µM (1 of 3 replicates). For KGDSARYYYAC / GKNNRPS / SSRDSSGFQVF, the assay gave 96 µM (1 of 3 replicates). The variant EGDSLRYYYAK / GKNMRPS / SSRDSYGFQVF gave 160 µM (1 of 3 replicates). The variant EGDSLRYYYAW / GKNNRPN / SSRDPSGFQVF showed 200 µM (2 of 3 replicates). For EGDSLRYYYAK / GKNNRVS / SSRCSSGFQVF, the assay gave 230 µM (1 of 3 replicates).

The variant EGDSLRYYYNT / GKNNRPS / SSRDSSGFAVF showed no signal (0 of 3 replicates). With EGDSLRYYYAH / GKNNWPS / SQRDSSGFQVF the result was no signal (0 of 3 replicates). With EGDSLRYYYAC / GKNNRPS / QSRDSSGFDVF the result was no signal (0 of 3 replicates). With EGDSLRYYYAC / GKNNRPS / SSRDSSGCQIF the result was no signal (0 of 3 replicates). The variant EGDSLRYYYAV / GKNNRPS / PSRDSSGFQVF showed no signal (0 of 3 replicates).

The variant EGDSLRYYYAQ / GKNNRPS / SSVDSSGFQVG gave no signal (0 of 3 replicates). The variant EGDSERYYYAY / GTNNRPS / SSRDSSGFQVF gave no signal (0 of 3 replicates). The variant LGDSLRYYYAY / GKNNRPS / SSRWSSGFQVF gave no signal (0 of 3 replicates). With EGDSLRYYYAA / GKNNRPS / SSRDSSGFPVA the result was no signal (0 of 3 replicates).

The first 3 entries again:

The variant EYDWLRYYYAF / GKNNRPS / SSRDSSGFQVF gave 320 nM (3 of 3 replicates).
The variant EGDSLRYYYAP / GKNNRAS / SSRDSSGFQVV gave 480 nM (3 of 3 replicates).
The variant EGDSLRYYYVK / GKNNPPS / SSRDSSGFQVF gave 550 nM (2 of 3 replicates).